Measured values from patent US20080176810A1, “Use of 3, 4', 5-Trihydroxy-Stilbene-3-Beta-D-glucoside in Prepartion of Medicines For Treating and/or Preventing Ischemic Heart Disease” (SHENZHEN NEPTUNUS PHARMACEUTICAL CO., LTD., priority 2004, published 2008).
“And” between values parts separate entries of the source, which are not always exact repeats. Equal values may be shown once.

Tests used:
[1] = tested on: chronic myocardial ischemia; assay: Chronic myocardial ischemia in rats, intragastric administration; format: in vivo, SD rats; conditions: TSG 20 mg/kg intragastric, 6 weeks
Method: (1) Operation and Coronary artery ligation of Animal: 60 male SD rats, divided into two groups: 15 in sham operation group and 45 in operation group, were immobilized on their backs by anesthesia of urethane ip at the dose of 100 mg/kg. Electrocardiograph (ECG-6851C, made by Shanghai Photoelectrical & Electronic Medical Apparatus Co., Ltd.) was used to record II lead electrocardiogram. Tracheal intubation was performed and connected into an artificial respirator and thoracotomy was performed at the fourth intercostal space of left sternal border after the skin sterilization. With exposure of the heart, the ligation was conducted at 3-4 mm of the root of left anterior descending coronary artery. ECG was monitored during the whole process and the graph showing significant elevation and depression of ST segment as well as the elevated T-wave amplitude was viewed as the indexes for the success of coronary artery ligation. After the ligation, thorax was closed and the air was drawn out. Regular feeding was continued after the operation, and the intramuscular injection of Penicillin was performed to prevent infection in 1 week after the operation. Thoracotomy was performed in sham operation group without coronary artery ligation. […]
(1) Evaluation of therapeutic effect: Therapeutic effect was evaluated at the 12th week after the operation. […]

Kunming mice = assay: Acute toxicity test of mice, intravenous injection; conditions: tail intravenous injection

Substance: 3,4′,5-trihydroxy-stilbene-3-β-D-glucoside [TSG]
- Infarct size ratio [1]: 5.9 ± 1.2^ΔΔ %
- LD50 (Kunming mice): 648.94 mg/kg and 640 mg/kg
